# Experimental data from ChEMBL document CHEMBL3286342, “Design, synthesis, and structure-activity relationships of pyridoquinazolinecarboxamides as RNA polymerase I inhibitors” (J Med Chem, 2014).
# Assay: Inhibition of RNA polymerase-1 in human U2OS cells assessed as decrease in nucleolar localization of nucleolin after 3 hrs by epifluorescence microscopic analysis
# Type: cell-based
row,Compound,IC50 [nM]
1,CCN(CCN(C)C)C(=O)c1cccn2c(=O)c3cc4ccccc4cc3nc12,> 100000
2,CN(C)CCCCNC(=O)c1cccn2c(=O)c3cc4ccccc4cc3nc12,1530
3,CN(C)CCCNC(=O)c1cccn2c(=O)c3cc4ccccc4cc3nc12,480
4,O=C(NC1CNC1)c1cccn2c(=O)c3cc4ccccc4cc3nc12,180
5,CN1CCC(NC(=O)c2cccn3c(=O)c4cc5ccccc5cc4nc23)CC1,1380
6,CC(C)N1CCN(C(=O)c2cccn3c(=O)c4cc5ccccc5cc4nc23)CC1,> 100000
7,CCN(CC)CCNC(=O)c1cccn2c(=O)c3cc4ccccc4cc3nc12,190
8,CC(CN(C)C)NC(=O)c1cccn2c(=O)c3cc4ccccc4cc3nc12 (stereo not given),160
9,CC(CNC(=O)c1cccn2c(=O)c3cc4ccccc4cc3nc12)N(C)C (stereo not given),40
10,CC(C)N(CCNC(=O)c1cccn2c(=O)c3cc4ccccc4cc3nc12)C(C)C,1700
